Among the data in patent publication US20260217707A1, “GLP-1R AGONISTS AND USES THEREOF” (Fochon Biosciences, Ltd., priority 2023, published 2026) are EC50 values, retold here.

By UniProt entry, the sequences of proteins in these tests, tags left out. Residues count along the entry.
UniProt P43220, 24-463 limits assumed: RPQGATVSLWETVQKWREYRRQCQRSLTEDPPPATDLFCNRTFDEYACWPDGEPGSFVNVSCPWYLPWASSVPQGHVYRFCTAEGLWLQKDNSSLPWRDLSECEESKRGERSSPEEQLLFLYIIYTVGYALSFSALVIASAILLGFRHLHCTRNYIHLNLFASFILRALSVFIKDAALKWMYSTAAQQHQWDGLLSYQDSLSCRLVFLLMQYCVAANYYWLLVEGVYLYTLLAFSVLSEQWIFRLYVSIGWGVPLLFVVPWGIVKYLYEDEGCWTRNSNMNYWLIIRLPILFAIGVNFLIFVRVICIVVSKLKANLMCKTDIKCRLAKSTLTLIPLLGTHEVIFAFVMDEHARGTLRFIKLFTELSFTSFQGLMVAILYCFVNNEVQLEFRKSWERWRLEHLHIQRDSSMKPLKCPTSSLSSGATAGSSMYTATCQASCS

In this experiment the target is GLP1R receptor (Homo sapiens, UniProt P43220). Kind of experiment: cAMP assay: intracellular cAMP detected by TR-FRET. The settings on record: read-out: cAMP Assay EC50, cells incubated with compound at 37° C. for 30 min, maximum concentration 12 μM. As for the experimental part: Intracellular cAMP concentration was detected by TR-FRET method to evaluate the activity of drug-induced GLP1R receptor. The cells were prepared in an experimental buffer solution (HBSS, 20 mM HEPES (pH 7.5), 0.1% BSA, 500 μM IBMX) and inoculated into 384 cell culture plates with a inoculated density of 2000 cells and a inoculated volume of 15 μL per well. The compound was diluted by 3 times gradient with DMSO, 10 concentration gradients, and the 10 concentration gradients were diluted by 100 times in Buffer. The maximum concentration point of compound to be tested was 12 μM. The inoculated 384 cell plates were added with 5 μL prepared working solution and incubated at 37° C. for 30 min. Eu-cAMP tracer was diluted 50 times and Ulight-anti-cAMP 150 times by detection buffer (cAMP Kit, Perkin Elmer, cat #TRF0263). At first, 10 μL Eu-cAMP tracer was added to each experimental well, and then 10 μL Uligh-anti-cAMP was added to each experimental well. Centrifuged the assay plate at 200 g, RT, for 30 s, incubated it at 25° C. for 1 h. Collected the data by Envision 2105 microplate reader with a HTRF module. […]
The activation rate of each concentration of the tested compound to the positive drug was calculated by the formula % Activity=100 (SignalcmpdSignalAve_PC)/(SignalAve_VCSignalAve_PC)×100, EC50 values and nonlinear regression curve fits were obtained using GraphPad Prism software.
(Cyclic AMP is a second messenger, typically raised through Gs and lowered through Gi signalling.)

For the compound `Cc1cc(-n2nc3c(c2-n2cnn(-c4ccc5c(cnn5C)c4F)c2=O)[C@H](C)N(C(=O)c2cc4cc(C5CCOC(C)(C)C5)ccc4n2[C@@]2(c4noc(=O)[nH]4)C[C@@H]2C)CC3)cc(C)c1F` (stereo partly shown), the EC50 came to 0.511 nM.
